Assay results: PubChem BioAssay AID1209 (Sanford-Burnham Center for Chemical Genomics, 2008)
The entries are a selection whose mix differs from that of the whole data set. Calls of active or inactive are those of the source. No stated cut-off is given here; in the data, active means inhibition above about 50%; inactive means the rest.

Sequences of proteins named here, by UniProt entry; tags and fusion partners are left off. A change or cut given only in a name is not applied to a line headed by its entry.
UniProt P34949: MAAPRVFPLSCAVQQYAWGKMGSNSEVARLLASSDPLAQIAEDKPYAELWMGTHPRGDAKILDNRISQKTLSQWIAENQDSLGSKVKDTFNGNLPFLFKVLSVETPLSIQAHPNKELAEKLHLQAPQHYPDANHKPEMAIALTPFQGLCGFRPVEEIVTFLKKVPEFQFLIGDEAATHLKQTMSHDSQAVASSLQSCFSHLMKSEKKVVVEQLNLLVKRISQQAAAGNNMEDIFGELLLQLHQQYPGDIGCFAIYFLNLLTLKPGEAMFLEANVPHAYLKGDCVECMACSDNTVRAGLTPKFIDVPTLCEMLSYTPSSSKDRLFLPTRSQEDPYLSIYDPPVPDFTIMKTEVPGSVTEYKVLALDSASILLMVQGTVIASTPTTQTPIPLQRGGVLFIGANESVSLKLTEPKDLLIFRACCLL

These compounds were tested against Mannose-6-phosphate isomerase (Homo sapiens) (UniProt P34949) (assay: MPI enzyme activity inhibition – biochemical, fluorescence intensity, coupled assay, primary screen (AID 1209;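 further: plate controls were DMSO vehicle for no effect and wells lacking substrate for full effect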)). Conditions: purified PMI enzyme, at 20 µM, active compounds read high.
For CCC(C)N(CC(C)C)C(=S)SC(NC(C)=O)C(Cl)(Cl)Cl (stereo not drawn), the inhibition was inactive: -15.2%. With O=C(COc1ccccc1)OC1CN2CCC1CC2 (stereo not drawn) the inhibition was inactive: 0.4%. For COP1(=S)c2c(C)nn(CCC#N)c2N=C(c2ccc(F)cc2)N1C (stereo not drawn), the inhibition was inactive: -1.7%. In the case of O=P(Nc1ccccn1)(c1cccc2ccccc12)c1cccc2ccccc12, the inhibition is reported as inactive: 10%. Cc1cc(SC(NC=O)C(Cl)(Cl)Cl)ncn1 (stereo not drawn) was tested, and the inhibition was inactive: -16.6%. With Cc1cc(SC(NC(=O)c2ccccc2)C(Cl)(Cl)Cl)nc(C(C)C)n1 (stereo not drawn) the inhibition was inactive: 1.5%. For O=[N+]([O-])c1cc([N+](=O)[O-])c(-c2ccn[nH]2)s1, the inhibition was inactive: 5.9%. With CC(C)NC(=O)NP(=O)(Oc1ccccc1)Oc1ccccc1 the inhibition was inactive: 7.9%. For CCN(CC)C(=S)SC(NC=O)C(Cl)(Cl)Cl (stereo not drawn), the inhibition was inactive: 3.8%. In the case of ClCCSc1nnc(-c2cccnc2)o1, the inhibition is reported as inactive: 10.5%. In the case of Cc1ccc2nc3c(c(C)c2c1)CC(C(Cl)Cl)S3 (stereo not drawn), the inhibition is reported as inactive: 1.7%. In the case of COc1ccc(N/C(=N/P(=O)(N2CCOCC2)N2CCOCC2)N2CCOCC2)cc1, the inhibition is reported as inactive: -1.1%. With COc1ccc2nc(NP(=O)(c3ccccc3)c3ccccc3)sc2c1 the inhibition was inactive: -2.2%. For Cc1c2c(nc3ccccc13)SC(C(Cl)Cl)C2 (stereo not drawn), the inhibition was inactive: 9.8%. For Cc1cc(=O)[nH]c(N[N+](=O)[O-])n1, the inhibition was inactive: -3.4%. For O=C(OC1CN2CCC1CC2)C12CC3CC(CC(C3)C1)C2 (stereo not drawn), the inhibition was inactive: -10.4%. For CCOP(=O)(Nc1cccc2ccccc12)OCC, the inhibition was inactive: 8.1%. COc1cc(C2NCCC3(OCCO3)C2(C)C)cc(OC)c1OC (stereo not drawn) was tested, and the inhibition was inactive: -4.9%. In the case of Cc1ccc(NCCc2c([N+](=O)[O-])cc([N+](=O)[O-])cc2[N+](=O)[O-])cc1, the inhibition is reported as inactive: -2.5%. For Cc1cccc(OCC(=O)OC2CN3CCC2CC3)c1 (stereo not drawn), the inhibition was inactive: 4.9%. For COc1cc(C(=O)NCC2(N3CCOCC3)CCCCC2)cc(Cl)c1OC(C)C, the inhibition was inactive: -4.7%. For CCOP1(=S)c2c(C)nn(CCC#N)c2N=C(c2ccc(F)cc2)N1C (stereo not drawn), the inhibition was inactive: -2.7%. O=[N+]([O-])c1ccc2c(c1)nnn2O was tested, and the inhibition was inactive: -3%. In the case of O=P(Nc1nccs1)(Oc1ccccc1)Oc1ccccc1, the inhibition is reported as inactive: -2.5%. O=P(Nc1nccs1)(c1ccccc1)c1nc2ccccc2s1 (stereo not drawn) was tested, and the inhibition was active: 107%. CCOP1(=S)c2c(C)nn(CCC#N)c2N=C(c2ccccc2F)N1C (stereo not drawn) was tested, and the inhibition was inactive: 6.5%. Cc1ccc(OCC(=O)OC2CN3CCC2CC3)cc1 (stereo not drawn) was tested, and the inhibition was inactive: 6.7%. O=P1(Nc2ccc(Br)cn2)COc2ccccc2OC1 was tested, and the inhibition was inactive: 1.4%. With O=P1(Nc2ncccn2)COc2ccccc2OC1 the inhibition was inactive: -9%. CN(C)C1(CNC(=O)c2ccc(S(C)(=O)=O)cc2)CCCCC1 was tested, and the inhibition was inactive: 11%. In the case of CC1CCC(C(C)C)C(OP(=O)(Nc2ccccn2)c2ccccc2)C1 (stereo not drawn), the inhibition is reported as inactive: -12.6%. For Cc1nn(-c2ccccc2)c2c1P(=O)(N1CCOCC1)N(C)C(c1ccccc1)=N2 (stereo not drawn), the inhibition was inactive: 11.7%. For CC(C)/C=N\N=C(\N)N[N+](=O)[O-], the inhibition was inactive: -17.6%. For CN(C(=O)Cc1ccc(Cl)c(Cl)c1)[C@@H]1CCCC[C@H]1N1CCCC1, the inhibition was inactive: -0.8%. Clc1n[nH]nc1-c1nn[nH][15n]1 was tested, and the inhibition was inactive: 5.4%. For O=P1(Nc2ccccn2)COc2ccccc2OC1, the inhibition was inactive: 9.7%. In the case of c1nnnn1CCn1cnnn1, the inhibition is reported as inactive: 10.8%. For CC(C)C(=O)NC(Sc1ccccc1)C(Cl)(Cl)Cl (stereo not drawn), the inhibition was inactive: 3.8%. In the case of O=P(Nc1nccs1)(c1ccccc1)c1ccccc1, the inhibition is reported as inactive: -2.4%. O=C(OC1CN2CCC1CC2)c1cccc(Cl)c1 (stereo not drawn) was tested, and the inhibition was inactive: 12.7%. C(Cc1nn[nH]n1)Cc1nn[nH]n1 was tested, and the inhibition was inactive: 32.6%. For CC(=O)NC(SC(=S)N(C)C)C(Cl)(Cl)Cl (stereo not drawn), the inhibition was inactive: 0.1%. With O=P(Nc1ccccn1)(c1ccc(Br)cc1)c1ccc(Br)cc1 the inhibition was inactive: -1.9%. In the case of O=c1c2cc([N+](=O)[O-])ccc2[nH]c2c([N+](=O)[O-])cc([N+](=O)[O-])cc12, the inhibition is reported as inactive: 4%. CCC(=O)N1C2C3N(C(=O)CC)C1C1N(C(=O)CC)C(C(N1C(=O)CC)N3C(=O)CC)N2C(=O)CC was tested, and the inhibition was inactive: -7.5%. For CC(=O)NC(SC(=S)N(CC(C)C)CC(C)C)C(Cl)(Cl)Cl (stereo not drawn), the inhibition was inactive: -7.2%. Cc1ccc(OP(=O)(Nc2ccccn2)Oc2ccc(C)cc2)cc1 was tested, and the inhibition was inactive: 8.7%. COC(=O)c1cc2c(s1)N=C(c1ccccc1)N(C)P2(=O)N1CCOCC1 (stereo not drawn) was tested, and the inhibition was inactive: 0.7%. With CCOC(=O)NC(Sc1ccccc1)C(Cl)(Cl)Cl (stereo not drawn) the inhibition was inactive: 1.3%. For c1ccc(-c2nn[nH]n2)c(-c2nn[nH]n2)c1, the inhibition was inactive: -18.9%. In the case of CCNC(=S)/N=C(\N)N[N+](=O)[O-], the inhibition is reported as inactive: -3.4%. For O=C(NC1CCS(=O)(=O)C1)NP(=S)(Oc1ccccc1)Oc1ccccc1 (stereo not drawn), the inhibition was inactive: 15.5%. For CC(=O)Nc1ccc(Oc2c([N+](=O)[O-])cc([N+](=O)[O-])cc2[N+](=O)[O-])cc1, the inhibition was inactive: -15.6%. CC(C)(C)C(=O)NC(Sc1ccccc1)C(Cl)(Cl)Cl (stereo not drawn) was tested, and the inhibition was inactive: 2.2%. CCOc1ccc(C2=NCC(CBr)S2)cc1 (stereo not drawn) was tested, and the inhibition was inactive: 2.1%. In the case of O=P1(Nc2nc3ccc(Cl)cc3s2)COc2ccccc2O1 (stereo not drawn), the inhibition is reported as inactive: 16.4%. O=C(NC(Sc1ccncn1)C(Cl)(Cl)Cl)c1ccccc1 (stereo not drawn) was tested, and the inhibition was inactive: 1.1%. For Cc1c2non([O-])c-2c(C)[n+](=O)[n+]1[O-], the inhibition was inactive: 37.4%. With Oc1ccccc1CNc1ccccn1 the inhibition was inactive: 3.7%. With CC(C)CC(=O)NC(Sc1ccc(Cl)cc1)C(Cl)(Cl)Cl (stereo not drawn) the inhibition was inactive: -5.1%. For CN1CCCC(OC(=O)C(c2ccccc2)c2ccccc2)C1 (stereo not drawn), the inhibition was inactive: -8.2%. For Clc1ccc(Cl)c(NC2=NCC(CBr)S2)c1 (stereo not drawn), the inhibition was inactive: -25.6%. With COc1ccccc1OP(=O)(Nc1ccc(C)cn1)Oc1ccccc1OC the inhibition was inactive: -0.6%. With Cc1ccc(N/C(=N/P(=O)(N2CCOCC2)N2CCOCC2)N2CCOCC2)cc1 the inhibition was inactive: -0.9%. With NC(=O)c1cc([N+](=O)[O-])cc([N+](=O)[O-])c1N the inhibition was inactive: -5.6%. With CCN(N=Nc1nonc1N)c1nonc1N the inhibition was inactive: 15%. In the case of Cc1cc(SC(NC(=O)c2ccc(F)cc2)C(Cl)(Cl)Cl)ncn1 (stereo not drawn), the inhibition is reported as inactive: -14.2%. CCOP(=O)(Nc1ccccc1)OCC was tested, and the inhibition was inactive: -1.4%. In the case of O=[N+]([O-])c1ncn(CCn2ncnc2[N+](=O)[O-])n1, the inhibition is reported as inactive: -9.4%. For CC1CCN(C(=O)Oc2c(Cl)cc(Cl)c3cccnc23)CC1, the inhibition was inactive: 0.9%. With CN(C)C(=O)OCCc1n(C)cc[n+]1C the inhibition was inactive: 2%. With CC(C)=N/N=C(\N)N[N+](=O)[O-] the inhibition was inactive: -9.3%. For CCN(/C(=N/P(=O)(N1CCOCC1)N1CCOCC1)N1CCOCC1)c1ccc(OC)cc1, the inhibition was inactive: -4.7%. O=[N+]([O-])c1cc([N+](=O)[O-])c(CCNc2ccccc2)c([N+](=O)[O-])c1 was tested, and the inhibition was inactive: -23.9%. Cc1ccc(NP(=O)(Oc2ccccc2)Oc2ccccc2)nc1 was tested, and the inhibition was inactive: 3.3%. With O=[N+]([O-])c1cccc2n[nH]nc12 the inhibition was inactive: -5.9%. In the case of CC(=O)N1C2C3N(C(C)=O)C1C1N(C(C)=O)C(C(N1C(C)=O)N3C(C)=O)N2C(C)=O, the inhibition is reported as inactive: 0.6%. With COc1ccc(C2=NCC(CBr)S2)cc1 (stereo not drawn) the inhibition was inactive: 5.2%.
